In this experiment the target is Kelch-like ECH-associated protein 1 (Homo sapiens) (UniProt Q14145). Briefly: Tm shift of Keap1 Kelch upon compound binding – biophysical, thermal shift, RT-PCR instrument, cherry-pick, dose response (AID 651823). The following applies: at 50 µM, stronger effect = higher value.

The chains behind the UniProt entries cited, without tags or fusion partners.
UniProt Q14145, whole entry: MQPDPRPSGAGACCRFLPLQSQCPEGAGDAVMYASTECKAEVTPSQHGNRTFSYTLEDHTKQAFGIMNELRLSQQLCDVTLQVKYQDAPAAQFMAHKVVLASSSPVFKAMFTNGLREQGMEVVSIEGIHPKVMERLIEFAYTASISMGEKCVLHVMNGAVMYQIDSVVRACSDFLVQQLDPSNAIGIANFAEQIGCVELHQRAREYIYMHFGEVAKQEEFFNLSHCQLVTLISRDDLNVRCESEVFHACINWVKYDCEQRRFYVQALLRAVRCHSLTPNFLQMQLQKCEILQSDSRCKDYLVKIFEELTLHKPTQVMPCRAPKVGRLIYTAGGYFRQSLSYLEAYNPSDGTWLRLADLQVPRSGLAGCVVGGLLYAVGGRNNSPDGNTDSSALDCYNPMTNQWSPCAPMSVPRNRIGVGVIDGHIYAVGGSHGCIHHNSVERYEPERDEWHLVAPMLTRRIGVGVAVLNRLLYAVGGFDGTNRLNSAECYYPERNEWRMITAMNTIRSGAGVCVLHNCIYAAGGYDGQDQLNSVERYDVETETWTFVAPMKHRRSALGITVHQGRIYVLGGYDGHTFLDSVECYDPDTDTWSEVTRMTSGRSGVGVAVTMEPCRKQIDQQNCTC

This is a selection; strong and weak results do not stand in their true shares. Active and inactive are the calls of the source. Cut-off read from the data, not from the text of the source: active = max delta Tm above about 0.48 degrees C; inactive = the rest.

Consider one molecule from PubChem BioAssay AID651823 (Broad Institute, 2012).

As for `CCCN1CCC(Nc2cc(OC)cc(OC)c2)CC1`, the max delta Tm is inactive: -0.03 °C.
